{
  "source": "patent US20070292967A1",
  "about": "“Assay for Ligands of the Ecdysone Receptor” (COMMONWEALTH SCIENTIFIC AND INDUSTRIAL RESEARCH OR, priority 2003, published 2007)",
  "target": "T1, non-recombinant (full-length) ecdysone receptor in L. cuprina embryo extracts (Lucilia cuprina, UniProt O18531)",
  "T1 construct": "identical to that for the non-recombinant (full-length) ecdysone receptor; from tissue; host or cells: Lucilia cuprina embryo extracts",
  "T1 sequence (O18531 1-757)": "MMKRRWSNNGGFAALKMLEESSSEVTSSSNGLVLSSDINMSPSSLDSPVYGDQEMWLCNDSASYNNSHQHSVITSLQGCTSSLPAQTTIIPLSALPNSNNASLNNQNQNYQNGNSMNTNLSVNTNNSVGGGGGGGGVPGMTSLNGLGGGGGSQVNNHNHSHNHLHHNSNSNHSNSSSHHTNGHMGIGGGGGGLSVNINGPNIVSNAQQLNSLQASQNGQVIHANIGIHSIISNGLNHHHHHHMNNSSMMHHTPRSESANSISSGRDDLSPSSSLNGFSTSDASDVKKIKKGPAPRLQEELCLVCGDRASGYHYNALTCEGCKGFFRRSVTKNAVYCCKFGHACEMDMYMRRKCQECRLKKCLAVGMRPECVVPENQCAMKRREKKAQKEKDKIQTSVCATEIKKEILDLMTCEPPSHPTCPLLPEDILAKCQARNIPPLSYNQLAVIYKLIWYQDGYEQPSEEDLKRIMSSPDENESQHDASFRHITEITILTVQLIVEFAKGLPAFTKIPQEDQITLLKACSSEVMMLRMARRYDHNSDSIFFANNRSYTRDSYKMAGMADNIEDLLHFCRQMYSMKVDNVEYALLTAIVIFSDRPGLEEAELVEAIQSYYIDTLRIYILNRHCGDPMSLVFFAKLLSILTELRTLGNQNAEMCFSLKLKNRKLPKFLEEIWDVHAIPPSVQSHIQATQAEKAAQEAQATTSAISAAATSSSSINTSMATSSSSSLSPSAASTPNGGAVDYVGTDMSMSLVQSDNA",
  "experiment": "equilibrium binding of [3H]ponasterone A, L. cuprina embryo extracts",
  "method": "For each recombinant receptor LBD heterodimer, equilibrium binding experiments were performed in which different concentrations of [^3H]ponasterone A (typically 0.1-4.0 nM bindable radioligand) were incubated with a low fixed concentration of the LBD heterodimer, and receptor-radioligand binding was determined essentially as described below (viz. the manual procedure for MpLBD in ‘METHODS—Testing fluorescent and reference ecdysteroids as ligands using a radioligand-based assay’, performed in a total volume of 154 μl but with no competitor ligand present). Since the condition [[3H]ponA]bound<[[3H]ponA]total/10 was observed, ligand depletion was avoided and plots of bound vs. free [3H]ponasterone A concentrations were able to be fitted directly to the Langmuir isotherm (Hulme & Birdsall, 1992) [[3H]ponA]bound=[[3H]ponA]free−[LBD]tot/([Kd+[[3H]ponA]free) where [[3H]ponA]total is the total concentration of bindable [^3H]ponasterone A in the assay, [[^3H]ponA]free is the concentration of free bindable [^3H]ponasterone A in the assay, [[3H]ponA]bound is the concentration of bound [^3H]ponasterone A, [LBD]tot is the total concentration of functional recombinant receptor LBD heterodimer, and Kd is the dissociation constant for [^3H]ponasterone A with that receptor under the conditions of the assay. […]",
  "data": [
    {"substance": "[24,25,26,27-^3H(N)]ponasterone A [[^3H]ponasterone A]", "values": [
      {"measurement": "Kd", "value": "0.92 ± 0.1", "unit": "nM"}
    ]}
  ]
}
